According to patent US20250313563A1, “GLYCOGEN SYNTHASE KINASE 3 INHIBITORS AND USES THEREOF” (The Broad Institute, Inc., priority 2022, published 2025):
Read-outs that look alike come from different tables or passages of the source.

Sequences of proteins named here, by UniProt entry; tags and fusion partners are left off.
UniProt P49841, whole entry: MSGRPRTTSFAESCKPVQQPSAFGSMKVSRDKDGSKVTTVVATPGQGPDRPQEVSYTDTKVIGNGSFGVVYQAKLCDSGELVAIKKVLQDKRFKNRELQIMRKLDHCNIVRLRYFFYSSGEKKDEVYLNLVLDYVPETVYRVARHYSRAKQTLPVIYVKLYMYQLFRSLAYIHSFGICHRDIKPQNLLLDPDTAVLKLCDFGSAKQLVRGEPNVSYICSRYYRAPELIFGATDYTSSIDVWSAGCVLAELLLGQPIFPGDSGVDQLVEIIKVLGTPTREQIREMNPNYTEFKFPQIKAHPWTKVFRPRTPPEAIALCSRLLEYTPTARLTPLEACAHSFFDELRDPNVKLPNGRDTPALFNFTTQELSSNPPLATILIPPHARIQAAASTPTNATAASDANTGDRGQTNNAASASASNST
UniProt P49840, whole entry: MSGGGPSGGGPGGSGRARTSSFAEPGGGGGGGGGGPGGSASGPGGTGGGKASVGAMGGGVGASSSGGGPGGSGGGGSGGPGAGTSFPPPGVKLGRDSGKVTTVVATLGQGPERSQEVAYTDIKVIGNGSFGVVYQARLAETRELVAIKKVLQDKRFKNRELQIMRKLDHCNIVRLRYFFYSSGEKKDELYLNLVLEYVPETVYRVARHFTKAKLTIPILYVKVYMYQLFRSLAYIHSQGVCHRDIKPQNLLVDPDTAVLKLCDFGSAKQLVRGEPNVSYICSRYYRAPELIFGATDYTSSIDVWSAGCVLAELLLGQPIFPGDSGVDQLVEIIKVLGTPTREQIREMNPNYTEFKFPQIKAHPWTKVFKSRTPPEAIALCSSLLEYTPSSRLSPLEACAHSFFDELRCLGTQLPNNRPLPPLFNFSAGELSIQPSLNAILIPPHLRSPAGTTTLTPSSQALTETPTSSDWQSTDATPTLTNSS

Legend:
[1] = target: GSK3b (GST-full length GSK3b) (Homo sapiens (Human), UniProt P49841); test: GSK3b TR-FRET kinase assay; type: biochemical
[2] = target: GSK3α (GST-full length GSK3α) (Homo sapiens (Human), UniProt P49840); test: GSK3α TR-FRET kinase assay; type: biochemical
[3] = read-out: GSK3-B TR-FRET BIOCHEMICAL (TR-FRET), IC50, 1 nM GSK3b, 2 μM ATP, 30 minute preincubation (Table 16)
[4] = read-out: GSK3-A TR-FRET BIOCHEMICAL (TR-FRET), IC50, 1 nM GSK3α, 4 μM ATP, 30 minute preincubation (Table 16)
[5] = read-out: GSK3-B (TR-FRET 1 mM ATP), GMean, IC50, 1 mM ATP, geometric mean
[6] = read-out: GSK3-B TR-FRET BIOCHEMICAL (TR-FRET);, 1 nM GSK3b, 2 μM ATP, 30 minute preincubation, Table 16
[7] = read-out: GSK3-A (TR-FRET 1 mM ATP), GMean, IC50, 1 mM ATP, geometric mean
[8] = read-out: GSK3-A TR-FRET BIOCHEMICAL (TR-FRET);, 1 nM GSK3α, 4 μM ATP, 30 minute preincubation, Table 16
[9] = read-out: GSK3-B TR-FRET BIOCHEMICAL (TR-FRET), GMean, IC50, 1 nM GSK3b, 2 μM ATP, 30 minute preincubation, geometric mean
[10] = read-out: GSK3-A TR-FRET BIOCHEMICAL (TR-FRET), GMean, IC50, 1 nM GSK3α, 4 μM ATP, 30 minute preincubation, geometric mean
[11] = read-out: GSK3-B TR-FRET BIOCHEMICAL (TR-FRET), IC50, 1 nM GSK3b, 2 μM ATP, 30 minute preincubation
[12] = read-out: GSK3-A TR-FRET BIOCHEMICAL (TR-FRET), IC50, 1 nM GSK3α, 4 μM ATP, 30 minute preincubation

| Compound | IC50 [1, 3] [nM] | IC50 [2, 4] [nM] | IC50 [1, 9] [nM] | IC50 [2, 10] [nM] | further results |
| --- | --- | --- | --- | --- | --- |
| CCC1(c2cccc(N(C)C(=O)C3CCCCC3)c2)C2=C(CC(C)(C)CC2=O)Nc2n[nH]cc21 (centres unmarked) | 100 to 1000 | < 100 |  |  |  |
| CCC1(c2cccc(N3C[C@H](C)C[C@H](C)C3)c2)C2=C(CC(C)(C)CC2=O)Nc2n[nH]cc21 (some centres unmarked) | 1000 to 5000 | 100 to 1000 |  |  |  |
| CC[C@]1(c2cccc(-c3ccnc(C)c3)c2)C2=C(CC(C)(C)[C@@H](F)C2=O)Nc2n[nH]cc21 |  |  |  |  | IC50 [1, 5]: > 5000 nM; IC50 [1, 6]: 100 to 1000 nM; IC50 [2, 7]: 100 to 1000 nM; IC50 [2, 8]: < 100 nM |
| CCC1(c2cccc(C)c2)C2=C(CC3(CCCC3)CC2=O)Nc2n[nH]cc21 (centres unmarked) |  |  | 100 to 1000 | < 100 |  |
| CC[C@]1(c2cccc(-c3cnn(CCc4ccccc4)c3)c2)C2=C(CC(C)(C)NC2=O)Nc2n[nH]cc21 | 100 to 1000 | < 100 |  |  |  |
| CC[C@]1(c2cccc(Br)c2)C2=C(C[C@H](C)CC2=O)Nc2n[nH]c(C(F)(F)F)c21 |  |  | < 100 | < 100 |  |
| CC1(C)CC(=O)C2=C(C1)Nc1n[nH]cc1[C@]21COC2(CN(C(=O)[C@H]3CC3(F)F)C2)C1 |  |  |  |  | IC50 [1, 5]: 100 to 1000 nM; IC50 [1, 11]: < 100 nM; IC50 [2, 7]: 100 to 1000 nM; IC50 [2, 12]: < 100 nM |
| CCC1(c2cccc(-c3cnn(C)n3)c2)C2=C(CC(C)(C)CC2=O)Nc2n[nH]cc21 (centres unmarked) |  |  |  |  | IC50 [1, 6]: 1000 to 5000 nM; IC50 [2, 8]: < 100 nM |
| CC[C@]1(c2cccc(-c3ccncc3C)c2)C2=C(C[C@]3(CCOC3)NC2=O)Nc2n[nH]cc21 |  |  | < 100 | < 100 |  |
| CC[C@@]1(c2cccc(C(F)(F)F)c2)C2=C(CCN(c3cccnc3)C2=O)Nc2n[nH]cc21 |  |  | 100 to 1000 | < 100 | IC50 [1, 5]: > 5000 nM; IC50 [2, 7]: 100 to 1000 nM |
| CC[C@]1(c2cccc(-c3ccncc3CO)c2)C2=C(CC(C)(C)CC2=O)Nc2n[nH]cc21 |  |  |  |  | IC50 [1, 6]: 1000 to 5000 nM; IC50 [2, 8]: 100 to 1000 nM |
| CC[C@@]1(c2cccc(C(F)(F)F)c2)C2=C(C[C@H](c3ccccc3)NC2=O)Nc2n[nH]cc21 |  |  |  |  | IC50 [1, 11]: > 5000 nM; IC50 [2, 12]: 1000 to 5000 nM |
| CC[C@]1(c2cccc(-c3cc(C)nn3C)c2)C2=C(Nc3n[nH]cc31)[C@@H](F)C(C)(C)CC2=O |  |  |  |  | IC50 [1, 6]: > 5000 nM; IC50 [2, 8]: 100 to 1000 nM |
| CC[C@@]1(c2cccc(N(C)c3cccc(F)n3)c2)C2=C(CC(C)(C)CC2=O)Nc2n[nH]cc21 | < 100 | < 100 |  |  |  |
| CC[C@]1(c2cccc(N3CCCCC3)c2)C2=C(CC(C)(C)CC2=O)Nc2n[nH]cc21 |  |  | 100 to 1000 | < 100 |  |
| CC[C@@]1(c2cccc(-c3cn(C)nc3C)c2)C2=C(CC(C)(C)NC2=O)Nc2n[nH]c(C)c21 |  |  |  |  | IC50 [1, 5]: 100 to 1000 nM; IC50 [1, 11]: < 100 nM; IC50 [2, 7]: < 100 nM; IC50 [2, 12]: < 100 nM |
| CC[C@@]1(c2cccc(-c3ccnc4ccccc34)c2)C2=C(CC(C)(C)CC2=O)Nc2n[nH]cc21 |  |  |  |  | IC50 [1, 6]: > 5000 nM; IC50 [2, 8]: > 5000 nM |
| CC[C@@]1(c2cccc(-c3ccnc(C)c3)c2)C2=C(CC(C)(C)NC2=O)Nc2n[nH]c(C)c21 |  |  | 100 to 1000 | < 100 |  |
| CCC1(c2cccc(N(C)c3nccn3C)c2)C2=C(CC(C)(C)CC2=O)Nc2n[nH]cc21 (centres unmarked) | 1000 to 5000 | 100 to 1000 |  |  |  |
| CC[C@@]1(c2cccc(-c3cc(C)nc(C)c3)c2)C2=C(CC(C)(C)CC2=O)Nc2n[nH]cc21 | 100 to 1000 | < 100 |  |  |  |
| CCC1(c2cccc(C(F)(F)F)c2)C2=C(CC3(CCC3)NC2=O)Nc2n[nH]cc21 (centres unmarked) | < 100 | < 100 |  |  |  |
| CC[C@@]1(c2cccc(-c3ccnc(C)c3)c2)C2=C(C[C@@]3(CCOC3)NC2=O)Nc2n[nH]cc21 |  |  | > 5000 | 1000 to 5000 |  |
| CC(C)(C)Cc1[nH]nc2c1[C@](C)(c1ccccc1)C1=C(CC(C)(C)NC1=O)N2 |  |  |  |  | IC50 [1, 5]: 1000 to 5000 nM; IC50 [2, 7]: > 5000 nM |
| CC[C@@]1(c2cccc(N(C)c3cccc(C)n3)c2)C2=C(CC(C)(C)CC2=O)Nc2n[nH]cc21 | > 5000 | > 5000 |  |  |  |
| CC[C@@]1(c2cccc(-c3ccncc3)c2)C2=C(CC(C)(C)CC2=O)Nc2n[nH]c(C)c21 | < 100 | < 100 |  |  |  |
| CCn1nccc1-c1cccc([C@@]2(CC)C3=C(CC(C)(C)CC3=O)Nc3n[nH]cc32)c1 |  |  |  |  | IC50 [1, 5]: 100 to 1000 nM; IC50 [1, 6]: < 100 nM; IC50 [2, 7]: < 100 nM; IC50 [2, 8]: < 100 nM |
| CCC1(c2cccc(C(F)(F)F)c2)C2=C(CCN(c3cncnc3)C2=O)Nc2n[nH]cc21 (centres unmarked) |  |  | 100 to 1000 | < 100 |  |
| CC[C@@]1(c2cccc(N(C)C(C)=O)c2)C2=C(CC(C)(C)CC2=O)Nc2n[nH]cc21 |  |  | < 100 | < 100 |  |
| CC[C@]1(c2cccc(-c3cnn(-c4ccncc4)c3)c2)C2=C(CC(C)(C)NC2=O)Nc2n[nH]cc21 | > 5000 | 100 to 1000 |  |  |  |
